Data published in PMC2765782 (Journal of medicinal chemistry, 2009).

Legend:
RXR = target: T1, RXR (Homo sapiens, UniProt P19793); settings: 10^−7 M, 24 h, Caco-2 cells, compound 1 set to 1.0 (Figure 3)
T1 sequence (P19793 227-462 limits assumed): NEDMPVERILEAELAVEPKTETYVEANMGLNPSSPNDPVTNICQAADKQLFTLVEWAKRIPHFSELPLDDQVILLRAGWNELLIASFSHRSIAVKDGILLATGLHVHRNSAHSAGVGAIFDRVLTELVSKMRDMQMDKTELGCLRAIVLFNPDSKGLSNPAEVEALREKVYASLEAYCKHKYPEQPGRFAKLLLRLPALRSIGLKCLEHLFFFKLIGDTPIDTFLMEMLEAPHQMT

[1] = tested on: Human T-cell lymphoma (CTCL) cells (Hut78)

Compound: C=C(c1ccc(C(=O)O)c([N+](=O)[O-])c1)c1cc2c(cc1C)C(C)(C)CCC2(C)C [Compound 16, 4-(1-(1,2,3,4-Tetrahydro-1,1,4,4,6-pentamethylnaphthalen-7-yl)vinyl)-2-nitrobenzoic Acid]
- RXR binding and homodimerization relative to 1 (luciferase output) (RXR): about half as well as 1
- apoptotic activity (caspases 3 and 7) [1]: statistically significantly greater than the ethanol vehicle control

Compound: C=C(c1ccc(C(=O)O)c(F)c1)c1cc2c(cc1C)C(C)(C)CCC2(C)C [Compound 20, 2-fluoro-4-(1-(1,2,3,4-tetrahydro-1,1,4,4,6-pentamethylnaphthalen-7-yl)vinyl)benzoic acid]
- RXR binding and homodimerization relative to 1 (luciferase output) (RXR): better than 1
- apoptotic activity (caspases 3 and 7) [1]: statistically significantly greater than the ethanol vehicle control
